In PMC3460462 (The Journal of Biological Chemistry, 2012):

Tests used:
hFPR1 = biological target: T1, hFPR1 (Homo sapiens, UniProt P21462, N192K/R163H/V101L); assay: Single-cell resolution Ca2+ imaging, hFPR1; format: cell-based; settings: 9 μM fMLF
T1 sequence (P21462 1-350 V101L/R163H/N192K): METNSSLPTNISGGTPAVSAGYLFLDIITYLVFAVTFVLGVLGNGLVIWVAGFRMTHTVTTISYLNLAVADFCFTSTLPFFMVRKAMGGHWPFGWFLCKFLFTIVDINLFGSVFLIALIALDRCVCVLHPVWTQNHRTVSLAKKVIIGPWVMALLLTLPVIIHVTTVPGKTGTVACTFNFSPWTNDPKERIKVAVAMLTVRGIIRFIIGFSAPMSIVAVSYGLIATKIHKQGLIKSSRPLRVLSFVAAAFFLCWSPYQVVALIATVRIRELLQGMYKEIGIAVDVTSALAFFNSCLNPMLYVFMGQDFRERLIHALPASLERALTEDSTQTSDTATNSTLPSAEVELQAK

hFPR2 = biological target: T2, hFPR2 (Homo sapiens, UniProt P25090); assay: Single-cell resolution Ca2+ imaging, hFPR2; format: cell-based; settings: 9 μM fMLF; single-cell Fura-2 Ca2+ imaging
T2 sequence (P25090 1-351): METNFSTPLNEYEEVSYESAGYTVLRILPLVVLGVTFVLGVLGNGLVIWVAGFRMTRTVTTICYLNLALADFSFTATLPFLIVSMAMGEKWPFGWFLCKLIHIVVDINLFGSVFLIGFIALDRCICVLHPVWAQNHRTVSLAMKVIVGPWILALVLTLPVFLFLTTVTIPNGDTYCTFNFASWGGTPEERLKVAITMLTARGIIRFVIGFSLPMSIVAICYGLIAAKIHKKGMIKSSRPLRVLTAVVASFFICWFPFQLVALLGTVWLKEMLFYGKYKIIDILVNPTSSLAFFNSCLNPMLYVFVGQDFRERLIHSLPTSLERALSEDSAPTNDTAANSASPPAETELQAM

- number of responding cells (hFPR1; of 364 cells transfected with hFPR1, single-cell Ca2+ imaging): 258 cells
- activation by fMLF (in words) (hFPR1; single-cell Fura-2 Ca2+ imaging): could be activated
- activation by fMLF (in words) (hFPR2): could be activated
Substance: N-formylmethionine-leucine-phenylalanine [fMLF]
